Data: US10336752B2, “TYK2 inhibitors, uses, and methods for production thereof” (Nimbus Lakshmi, Inc., priority 2017, dated 2019)

System: IL-12 induced pSTAT4 in human PBMC
Assay: cells
Conditions: 0.5 h, read-out: IC50 IL-12 Induced pSTAT4 in human PBMC
Procedure: Human PBMC are isolated from buffy coat and are stored frozen for assays as needed. […] 15 μl of compound or DMSO is added to the well at the desired concentrations and incubated at 1 hr at 37 C. […] The final DMSO concentration of compound in the assay is 0.1%.

`O=C1NCc2nc(-c3c(F)cccc3F)cc(Nc3ccc(C(=O)N4CCCC4)cc3)c21` [Compound 1] was tested, and the IC50 was under 150 nM.
`[2H]C1([2H])NC(=O)c2c(Nc3ccc(C(=O)N4CCCC4)cc3)cc(-c3c(F)cccc3F)nc21` [Compound 2] showed an IC50 of under 150 nM.
Molecule `[2H]C1([2H])NC(=O)c2c(Nc3ccc(C(=O)N4C([2H])([2H])CCC4([2H])[2H])cc3)cc(-c3c(F)cccc3F)nc21` [Compound 3] has an IC50 of under 150 nM.
`[2H]C1([2H])NC(=O)c2c(Nc3ccc(C(=O)N4C([2H])([2H])C([2H])([2H])C([2H])([2H])C4([2H])[2H])cc3)cc(-c3c(F)cccc3F)nc21` [Compound 4] was tested, and the IC50 was under 150 nM.
Molecule `[2H]C1([2H])N(C(=O)c2ccc(Nc3cc(-c4c(F)cccc4F)nc4c3C(=O)NC4)cc2)C([2H])([2H])C([2H])([2H])C1([2H])[2H]` [Compound 5] has an IC50 of under 150 nM.
